The record followed here is patent publication US9029542B2 (priority 2011, dated 2015).

One test concerns rape. In words: Weed clearing activity test with culture dish method (ex-vivo plate method). The class given is in vivo. As to conditions: positive = inhibition; for weed clearing activity, rape Root (Effect): root length after 5 days; for weed clearing activity, rape Stem (Effect): stem length after 5 days.
The subject of a further test is cockspur grass. The description is as above. The class given is in vivo. As to conditions: positive = inhibition; for weed clearing activity, cockspur grass Root (Effect): root length after 5 days; for weed clearing activity, cockspur grass Stem (Effect): stem length after 5 days.

For the compound `CC(Oc1ccc(Cl)cc1F)C(=O)OCC12COP(=S)(OC1)OC2` (centres unmarked), the “weed clearing activity, rape Root (Effect)” value turned out to be 96% with rape (10 μg/g) and 98% in the test with rape (100 μg/g). Moreover, the “weed clearing activity, rape Stem (Effect)” value in the test on rape (10 μg/g, negative = promotion) was determined as 84%; in the test on rape (100 μg/g), 90%. Further, the “weed clearing activity, cockspur grass Root (Effect)” value in the test with cockspur grass (10 μg/g) was determined as 77%; in the test with cockspur grass (100 μg/g) it was 93%. Moreover, the results for the “weed clearing activity, cockspur grass Stem (Effect)” value in the test on cockspur grass (10 μg/g) and with cockspur grass (100 μg/g) were 42% and 46%, respectively.

`O=C(COc1ccccc1)OCC12COP(=O)(OC1)OC2`: the “weed clearing activity, rape Root (Effect)” value in the test with rape (10 μg/g) was found to be 82%; in the test with rape (100 μg/g), 99%. Further, the “weed clearing activity, rape Stem (Effect)” value was determined as 23% in the test on rape (10 μg/g, negative = promotion) and 83% in the test with rape (100 μg/g). For the same compound, the “weed clearing activity, cockspur grass Root (Effect)” value stood at 89% with cockspur grass (10 μg/g) and 94% in the test with cockspur grass (100 μg/g). The “weed clearing activity, cockspur grass Stem (Effect)” value in the test on cockspur grass (10 μg/g) was found to be 0%; with cockspur grass (100 μg/g), 82%.

Turning to `CC(Oc1cccc(Cl)c1Cl)C(=O)OCC12COP(=O)(OC1)OC2` (centres unmarked), the “weed clearing activity, rape Root (Effect)” value in the test on rape (10 μg/g) is recorded as 93%; in the test with rape (100 μg/g) it was 98%. Besides, the “weed clearing activity, rape Stem (Effect)” value in the test on rape (10 μg/g, negative = promotion) was 66%; in the test on rape (100 μg/g), 90%. Further, the “weed clearing activity, cockspur grass Root (Effect)” value with cockspur grass (10 μg/g) is recorded as 24%; in the test on cockspur grass (100 μg/g) it was 43%. For the same compound, the “weed clearing activity, cockspur grass Stem (Effect)” value stood at 34% in the test on cockspur grass (10 μg/g) and 46% in the test with cockspur grass (100 μg/g).

Take `Cc1cccc(OCC(=O)OCC23COP(=O)(OC2)OC3)c1`: the “weed clearing activity, rape Root (Effect)” value came out at 91% in the test with rape (10 μg/g) and 99% with rape (100 μg/g). Also, the “weed clearing activity, rape Stem (Effect)” value with rape (10 μg/g, negative = promotion) was 37%; with rape (100 μg/g), 77%. The “weed clearing activity, cockspur grass Root (Effect)” value is given as 83% in the test on cockspur grass (10 μg/g) and 94% with cockspur grass (100 μg/g). For the same compound, the “weed clearing activity, cockspur grass Stem (Effect)” value in the test with cockspur grass (10 μg/g) amounted to 0%; with cockspur grass (100 μg/g), 39%.

As for `Cc1ccc(Cl)c(OCC(=O)OCC23COP(=O)(OC2)OC3)c1`, the results for the “weed clearing activity, rape Root (Effect)” value in the test with rape (10 μg/g) and in the test on rape (100 μg/g) were 93% and 99%, respectively. Besides, the “weed clearing activity, rape Stem (Effect)” value with rape (10 μg/g, negative = promotion) is on record as 75%; in the test with rape (100 μg/g), 88%. Further, the “weed clearing activity, cockspur grass Root (Effect)” value in the test on cockspur grass (10 μg/g) was determined as 54%; in the test on cockspur grass (100 μg/g) it was 93%. Also, the “weed clearing activity, cockspur grass Stem (Effect)” value is on record as 3% in the test on cockspur grass (10 μg/g) and 37% in the test with cockspur grass (100 μg/g).

Consider `CC(Oc1ccc(F)cc1)C(=O)OCC12COP(=O)(OC1)OC2` (centres unmarked), for which the “weed clearing activity, rape Root (Effect)” value in the test with rape (10 μg/g) came to 96%; in the test with rape (100 μg/g), 99%. Moreover, the “weed clearing activity, rape Stem (Effect)” value in the test with rape (10 μg/g, negative = promotion) was 79%; in the test on rape (100 μg/g) it was 93%. Further, the “weed clearing activity, cockspur grass Root (Effect)” value was 88% in the test with cockspur grass (10 μg/g) and 96% in the test on cockspur grass (100 μg/g). The “weed clearing activity, cockspur grass Stem (Effect)” value came to 25% in the test on cockspur grass (10 μg/g) and 50% in the test on cockspur grass (100 μg/g).

As to `O=C(COc1cccc(C(F)(F)F)c1)OCC12COP(=O)(OC1)OC2`, the “weed clearing activity, rape Root (Effect)” value is listed as 92% with rape (10 μg/g) and 99% with rape (100 μg/g). The “weed clearing activity, rape Stem (Effect)” value turned out to be 87% with rape (10 μg/g, negative = promotion) and 97% in the test on rape (100 μg/g). Further, the entries for the “weed clearing activity, cockspur grass Root (Effect)” value in the test with cockspur grass (10 μg/g) and in the test with cockspur grass (100 μg/g) were 91% and 97%, respectively. Further, the figures for the “weed clearing activity, cockspur grass Stem (Effect)” value in the test with cockspur grass (10 μg/g) and in the test with cockspur grass (100 μg/g) were 50% and 78%, respectively.

`Cc1cccc(OCC(=O)OCC23COP(=O)(OC2)OC3)c1C`: the “weed clearing activity, rape Root (Effect)” value with rape (10 μg/g) is given as 86%; in the test with rape (100 μg/g), 99%. The “weed clearing activity, rape Stem (Effect)” value in the test with rape (10 μg/g, negative = promotion) stood at 64%; with rape (100 μg/g), 97%. Besides, the “weed clearing activity, cockspur grass Root (Effect)” value is 44% in the test with cockspur grass (10 μg/g) and 89% in the test with cockspur grass (100 μg/g). Besides, the “weed clearing activity, cockspur grass Stem (Effect)” value in the test with cockspur grass (10 μg/g) came to 18%; with cockspur grass (100 μg/g), 50%.

As to `CC(Oc1ccc(Cl)cc1Cl)C(=O)OCC12COP(=S)(OC1)OC2` (centres unmarked), the “weed clearing activity, rape Root (Effect)” value in the test on rape (10 μg/g) came out at 97%; with rape (100 μg/g), 99%. For the same compound, the “weed clearing activity, rape Stem (Effect)” value came to 89% with rape (10 μg/g, negative = promotion) and 93% in the test on rape (100 μg/g). For the same compound, the “weed clearing activity, cockspur grass Root (Effect)” value in the test on cockspur grass (10 μg/g) came to 91%; with cockspur grass (100 μg/g), 97%. In addition, the “weed clearing activity, cockspur grass Stem (Effect)” value in the test on cockspur grass (10 μg/g) is on record as 37%; in the test with cockspur grass (100 μg/g) it was 54%.

Regarding `CC(Oc1ccc(Cl)cc1Cl)C(=O)OCC12COP(=O)(OC1)OC2` (centres unmarked), the “weed clearing activity, rape Root (Effect)” value in the test with rape (10 μg/g) stood at 94%; in the test with rape (100 μg/g), 97%. Moreover, the “weed clearing activity, rape Stem (Effect)” value in the test on rape (10 μg/g, negative = promotion) worked out at 71%; with rape (100 μg/g), 93%. Moreover, the “weed clearing activity, cockspur grass Root (Effect)” value with cockspur grass (10 μg/g) is given as 85%; in the test on cockspur grass (100 μg/g) it was 91%. For the same compound, the “weed clearing activity, cockspur grass Stem (Effect)” value amounted to 30% in the test with cockspur grass (10 μg/g) and 43% in the test on cockspur grass (100 μg/g).

For the compound `CC(Oc1ccc(Cl)cc1F)C(=O)OCC12COP(=O)(OC1)OC2` (centres unmarked), the “weed clearing activity, rape Root (Effect)” value with rape (10 μg/g) and with rape (100 μg/g) was 98% each time. Moreover, the “weed clearing activity, rape Stem (Effect)” value came out at 74% in the test with rape (10 μg/g, negative = promotion) and 94% in the test on rape (100 μg/g). The entries for the “weed clearing activity, cockspur grass Root (Effect)” value in the test on cockspur grass (10 μg/g) and in the test with cockspur grass (100 μg/g) were 86% and 92%, respectively. For the same compound, the “weed clearing activity, cockspur grass Stem (Effect)” value in the test with cockspur grass (10 μg/g) amounted to 40%; in the test with cockspur grass (100 μg/g), 49%.

Take `CC(Oc1ccc(F)cc1Cl)C(=O)OCC12COP(=O)(OC1)OC2` (centres unmarked): the “weed clearing activity, rape Root (Effect)” value with rape (10 μg/g) amounted to 98%; in the test with rape (100 μg/g), 99%. Besides, the “weed clearing activity, rape Stem (Effect)” value with rape (10 μg/g, negative = promotion) turned out to be 90%; in the test on rape (100 μg/g) it was 94%. In addition, the results for the “weed clearing activity, cockspur grass Root (Effect)” value in the test with cockspur grass (10 μg/g) and with cockspur grass (100 μg/g) were 94% and 97%, respectively. Besides, the “weed clearing activity, cockspur grass Stem (Effect)” value in the test with cockspur grass (10 μg/g) amounted to 28%; in the test with cockspur grass (100 μg/g), 59%.

Take `CC(Oc1ccc(Cl)cc1)C(=O)OCC12COP(=S)(OC1)OC2` (centres unmarked): the “weed clearing activity, rape Root (Effect)” value with rape (10 μg/g) is listed as 97%; with rape (100 μg/g) it was 99%. For the same compound, the “weed clearing activity, rape Stem (Effect)” value was 91% with rape (10 μg/g, negative = promotion) and 96% with rape (100 μg/g). Also, the “weed clearing activity, cockspur grass Root (Effect)” value in the test with cockspur grass (10 μg/g) is recorded as 93%; with cockspur grass (100 μg/g), 97%. The “weed clearing activity, cockspur grass Stem (Effect)” value in the test with cockspur grass (10 μg/g) came to 36%; with cockspur grass (100 μg/g), 43%.

Regarding `CC(Oc1ccc(F)cc1Cl)C(=O)OCC12COP(=S)(OC1)OC2` (centres unmarked), the entries for the “weed clearing activity, rape Root (Effect)” value with rape (10 μg/g) and in the test on rape (100 μg/g) were 96% and 98%, respectively. Besides, the “weed clearing activity, rape Stem (Effect)” value in the test with rape (10 μg/g, negative = promotion) was 62%; in the test with rape (100 μg/g), 93%. In addition, the “weed clearing activity, cockspur grass Root (Effect)” value was 79% with cockspur grass (10 μg/g) and 97% with cockspur grass (100 μg/g). The “weed clearing activity, cockspur grass Stem (Effect)” value with cockspur grass (10 μg/g) is recorded as 40%; in the test with cockspur grass (100 μg/g), 47%.

As for `CC(Oc1ccc(Cl)cc1)C(=O)OCC12COP(=O)(OC1)OC2` (centres unmarked), the “weed clearing activity, rape Root (Effect)” value in the test on rape (10 μg/g) and in the test on rape (100 μg/g) was 97% in each case. The “weed clearing activity, rape Stem (Effect)” value in the test with rape (10 μg/g, negative = promotion) was found to be 73%; in the test on rape (100 μg/g), 92%. In addition, the “weed clearing activity, cockspur grass Root (Effect)” value was 86% in the test with cockspur grass (10 μg/g) and 93% with cockspur grass (100 μg/g). The figures for the “weed clearing activity, cockspur grass Stem (Effect)” value with cockspur grass (10 μg/g) and with cockspur grass (100 μg/g) were 39% and 44%, respectively.

Turning to `O=C(COc1ccc(F)cc1)OCC12COP(=O)(OC1)OC2`, the results for the “weed clearing activity, rape Root (Effect)” value with rape (10 μg/g) and in the test with rape (100 μg/g) were 86% and 99%, respectively. Moreover, the “weed clearing activity, rape Stem (Effect)” value in the test with rape (10 μg/g, negative = promotion) is given as 64%; in the test with rape (100 μg/g), 97%. Moreover, the “weed clearing activity, cockspur grass Root (Effect)” value in the test with cockspur grass (10 μg/g) amounted to 89%; in the test with cockspur grass (100 μg/g) it was 94%. The “weed clearing activity, cockspur grass Stem (Effect)” value with cockspur grass (10 μg/g) amounted to 18%; with cockspur grass (100 μg/g) it was 78%.

`CC(Oc1cccc(Cl)c1Cl)C(=O)OCC12COP(=S)(OC1)OC2` (centres unmarked): the “weed clearing activity, rape Root (Effect)” value with rape (10 μg/g) stood at 96%; in the test with rape (100 μg/g), 98%. Further, the “weed clearing activity, rape Stem (Effect)” value with rape (10 μg/g, negative = promotion) was 80%; in the test on rape (100 μg/g) it was 93%. Also, the “weed clearing activity, cockspur grass Root (Effect)” value came to 88% with cockspur grass (10 μg/g) and 97% with cockspur grass (100 μg/g). In addition, the “weed clearing activity, cockspur grass Stem (Effect)” value with cockspur grass (10 μg/g) worked out at 45%; with cockspur grass (100 μg/g), 59%.

As for `O=C(COc1ccc(Cl)cc1Cl)OCC12COP(=O)(OC1)OC2`, the “weed clearing activity, rape Root (Effect)” value in the test with rape (10 μg/g) is recorded as 95%; in the test on rape (100 μg/g), 99%. In addition, the “weed clearing activity, rape Stem (Effect)” value in the test on rape (10 μg/g, negative = promotion) was 92%; in the test with rape (100 μg/g) it was 99%. Moreover, the “weed clearing activity, cockspur grass Root (Effect)” value with cockspur grass (10 μg/g) was 94%; in the test on cockspur grass (100 μg/g), 97%. Also, the “weed clearing activity, cockspur grass Stem (Effect)” value in the test on cockspur grass (10 μg/g) and in the test with cockspur grass (100 μg/g) was 52% each time.

For `CC(Oc1ccc(F)cc1)C(=O)OCC12COP(=S)(OC1)OC2` (centres unmarked), the “weed clearing activity, rape Root (Effect)” value was 94% with rape (10 μg/g) and 99% in the test on rape (100 μg/g). The “weed clearing activity, rape Stem (Effect)” value in the test on rape (10 μg/g, negative = promotion) worked out at 67%; with rape (100 μg/g), 93%. Also, the “weed clearing activity, cockspur grass Root (Effect)” value in the test on cockspur grass (10 μg/g) turned out to be 87%; in the test on cockspur grass (100 μg/g), 97%. Also, the “weed clearing activity, cockspur grass Stem (Effect)” value in the test on cockspur grass (10 μg/g) is listed as 35%; in the test with cockspur grass (100 μg/g), 64%.
